Data from paper PMC7475896, “Ruthenium(II) and Iridium(III) Complexes as Tested Materials for New Anticancer Agents” (Materials, 2020).

Legend:
[1] = test system: normal mouse fibroblast (BALB/3T3) cell line; details: cited from earlier work
[2] = test system: normal mouse fibroblast (BALB/3T3) cell line; assay: in vitro cytotoxicity, SRB assay, normal BALB/3T3; type: cell-based; details: compound concentration 10 μg/mL
Description: The cytotoxicity of the investigated complexes 1–3 was determined by microculture with sulforhodamine B SRB (all adherent cells) and MTT ([3-(4,5-dimethyl(thiazol-2-yl) -2,5-diphenyltetrazoliumbromide)]) (for cells in suspension (leukemia cells)) assays with the following three tumor cell lines: colorectal adenoma (LoVo), myelomonocytic leukemia (MV-4-11), and breast adenocarcinoma (MCF-7), as well as a healthy mouse fibroblast (BALB/3T3) cell line. The cytotoxicity of the compounds was measured using the methods described previously. The in vitro cytotoxic activity results were presented as the percentage of inhibition of cell proliferation by the tested compounds or DMSO, which was used as a solvent (at a concentration of 10 µg/mL of the tested compound was 0.1% DMSO). The results for cisplatin, used as a test control, were presented in the form of IC50 value (this is the concentration of the compound causing the inhibition of cell proliferation of 50% of the cell population). The results were calculated from 2 to 3 independent experiments.

| Substance | cytotoxicity against BALB/3T3, times lower compared with cisplatin [1] | Cell viability [%] BALB/3T3 [2] |
| --- | --- | --- |
| [(η^6-p-cymene)RuCl(2,2′-PyBIm)]PF6 | 15 times |  |
| [(η^6-p-cymene)RuCl(py2CO)]PF6 [complex 1] |  | 99% |
